Test results as given in ChEMBL document CHEMBL5108071, “Potent and Specific Activators for Mitochondrial Sirtuins Sirt3 and Sirt5” (J Med Chem, 2022).

Experiments:
[1] = molecular target: NAD-dependent protein deacylase sirtuin-5, mitochondrial (Homo sapiens) (UniProt Q9NXA8); test: Activation of SIRT5 in human MDA-MB-231 cells assessed as reduction in GDH level at 50 uM incubated for 4 to 24 hrs; details: filed as activator, time 4-24 hrs
[2] = molecular target: NAD-dependent protein deacylase sirtuin-5, mitochondrial (Homo sapiens) (UniProt Q9NXA8); test: Activation of SIRT5 in human MDA-MB-231 cells assessed as blockade of ammonia accumulation at 50 uM incubated for 4 to 24 hrs; details: filed as activator, time 4-24 hrs
[3] = molecular target: NAD-dependent protein deacylase sirtuin-5, mitochondrial (Homo sapiens) (UniProt Q9NXA8); test: Activation of SIRT5 in human S2-013 cells assessed as decrease in GOT1 acetylation at 20 uM incubated for 24 hrs by Western blot analysis; details: filed as activator
[4] = molecular target: NAD-dependent protein deacylase sirtuin-5, mitochondrial (Homo sapiens) (UniProt Q9NXA8); test: Activation of SIRT5 in human CAPAN-1 cells assessed as decrease in GOT1 acetylation at 20 uM incubated for 24 hrs by Western blot analysis; details: filed as activator

Activity [1]: Active | Activity [2]: Active | Activity [3]: Active | Activity [4]: Active
SMILES: CCOC(=O)C1=CN(C(=O)c2ccccc2)C=C(C(=O)OCC)C1c1cccc(OC)c1

The source made the active and inactive calls. No cut-off for these calls is given here.
